Values quoted from earlier work in article PMC13010972 (Chemical communications (Cambridge, England), 2026).

System: polymyxin-resistant S. enterica strain EG9492
Conditions: cited from earlier work

## Nc1nc2ccc(OC(F)(F)F)cc2s1 [R-1, riluzole]
  re-sensitization of polymyxin-resistant strain to polymyxins: re-sensitizes a polymyxin-resistant strain to polymyxins
